# Assay results taken from patent US7854753B2, “Photokinetic delivery of biologically active substances using pulsed incoherent light” (Photokinetix, Inc., priority 2002, dated 2010).
# Assay: Franz skin diffusion cell permeation (percutaneous absorption) under ambient, natural or pulsed incoherent LED light
smiles,measurement,setting,value
"O=C(O)c1cccnc1 [Compound 6, Nicotinic acid]",Ctrl-TiO2/1.7,"Table 8, 405 nm series, 2% TiO2, 1.7 cps",1341.43
same,Ctrl-TiO2/9.7,"Table 8, 405 nm series, 2% TiO2, 9.7 cps",1481.09
same,Ctrl-TiO2/24,"Table 8, 405 nm series, 2% TiO2, 24 cps",0.00
same,405/1.7,"Table 8, 405 nm, 1.7 cps",0.00
same,405/9.7,"Table 8, 405 nm, 9.7 cps",0.00
same,405/24,"Table 8, 405 nm, 24 cps",10.61
